The text below walks through data of ChEMBL document CHEMBL4316604, “Discovery of Isaindigotone Derivatives as Novel Bloom's Syndrome Protein (BLM) Helicase Inhibitors That Disrupt the BLM/DNA Interactions and Regulate the Homologous Recombination Repair” (J Med Chem, 2019).

Chains of the proteins cited; added tags and fusions are not shown. Lines headed by an entry give the natural chain unless they say otherwise; changes in a name come on top.
UniProt P54132: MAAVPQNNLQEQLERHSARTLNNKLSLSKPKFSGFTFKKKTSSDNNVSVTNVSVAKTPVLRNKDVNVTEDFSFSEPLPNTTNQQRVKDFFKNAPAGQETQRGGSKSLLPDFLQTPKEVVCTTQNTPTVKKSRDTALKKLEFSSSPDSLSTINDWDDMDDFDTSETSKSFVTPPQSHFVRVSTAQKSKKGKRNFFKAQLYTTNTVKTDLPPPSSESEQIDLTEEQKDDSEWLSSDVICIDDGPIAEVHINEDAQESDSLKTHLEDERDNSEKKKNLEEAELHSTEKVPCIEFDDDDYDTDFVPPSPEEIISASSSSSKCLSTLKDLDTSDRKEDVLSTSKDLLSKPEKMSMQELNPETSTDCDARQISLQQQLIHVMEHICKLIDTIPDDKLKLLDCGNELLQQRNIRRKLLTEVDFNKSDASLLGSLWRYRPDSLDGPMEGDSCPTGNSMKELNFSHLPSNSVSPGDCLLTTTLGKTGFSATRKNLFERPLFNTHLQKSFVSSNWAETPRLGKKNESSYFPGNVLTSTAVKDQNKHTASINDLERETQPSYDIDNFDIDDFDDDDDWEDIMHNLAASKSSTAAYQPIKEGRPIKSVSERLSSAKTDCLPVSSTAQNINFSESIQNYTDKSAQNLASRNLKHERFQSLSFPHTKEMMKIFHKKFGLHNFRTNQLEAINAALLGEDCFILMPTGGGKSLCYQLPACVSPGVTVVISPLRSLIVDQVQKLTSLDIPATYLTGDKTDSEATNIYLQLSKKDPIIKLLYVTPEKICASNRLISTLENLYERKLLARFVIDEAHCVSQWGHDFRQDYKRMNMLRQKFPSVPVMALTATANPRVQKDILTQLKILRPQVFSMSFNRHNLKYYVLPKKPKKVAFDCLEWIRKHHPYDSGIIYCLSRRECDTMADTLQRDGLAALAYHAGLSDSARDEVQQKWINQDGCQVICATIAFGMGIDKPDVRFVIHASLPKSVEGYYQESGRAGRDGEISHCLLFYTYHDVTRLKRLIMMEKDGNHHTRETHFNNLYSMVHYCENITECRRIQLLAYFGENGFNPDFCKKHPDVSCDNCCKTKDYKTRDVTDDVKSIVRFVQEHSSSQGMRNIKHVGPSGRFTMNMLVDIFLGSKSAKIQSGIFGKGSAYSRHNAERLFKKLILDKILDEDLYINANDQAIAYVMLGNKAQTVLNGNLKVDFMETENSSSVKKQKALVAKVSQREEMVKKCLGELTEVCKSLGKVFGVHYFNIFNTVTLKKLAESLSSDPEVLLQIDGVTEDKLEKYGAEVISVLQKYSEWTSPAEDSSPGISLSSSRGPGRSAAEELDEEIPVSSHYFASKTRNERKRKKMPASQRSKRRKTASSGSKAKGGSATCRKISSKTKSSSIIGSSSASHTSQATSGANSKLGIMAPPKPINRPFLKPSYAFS

Test [1] addresses T1, RecQ-like DNA helicase BLM (Homo sapiens, UniProt P54132). Nature of the test: Inhibition of 5'-biotin labeled duplex forked-DNA binding to BLM (unknown origin) assessed as increase in unbound DNA levels after 1 hr by ELISA. The method in brief: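 Biotinylated forked DNA (50 nM) immobilised on streptavidin plates overnight at 4 °C. BLM or mutant (100 nM final) premixed with serially halved ligand in 3% BSA blocking buffer, ≤1% DMSO, 1 h on ice. Applied to the blocked plate for 1 h at 37 °C. Bound BLM detected with anti-BLM and HRP secondary, TMB, A450; Hill fit.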
In general terms: An ELISA detects its analyte on a solid surface through an enzyme-linked reagent.

Test [2] addresses T1, RecQ-like DNA helicase BLM. Put plainly: Inhibition of His-tagged BLM (unknown origin) expressed in Escherichia coli BL21 (DE3) assessed as reduction in BLM helicase unwinding activity using 5'-biotin labeled forked-DNA as substrate after 1 hr by PAGE analysis. The method in brief:
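BLM642-1296 (His-tagged, E. coli BL21(DE3)) preincubated with ligand (1.0, 10, 50 μM; ≤1% DMSO) for 1 h at 4 °C. Reaction: 8 nM annealed 5′-biotin duplex forked DNA, 32 nM BLM, 2 mM ATP, 0.1% BSA, 1 h. Run on 20% native PAGE at 4 °C, blotted, detected by chemiluminescence; ssDNA band quantified; IC50 by non-linear regression.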

As for `O=C(Nc1ccc(F)c(C(F)(F)F)c1)Nc1nnc(-c2ccncc2)s1`, the IC50 (as a rule, the concentration that inhibits the measured activity by half) amounted to 34.8 µM in test [1] and 2.15 µM in test [2].
